This test has as its target T1, mouse ENT-1 transporter (Mus musculus, UniProt Q9JIM1).
T1 construct: expressed in transfected cells
T1 sequence (Q9JIM1 1-460): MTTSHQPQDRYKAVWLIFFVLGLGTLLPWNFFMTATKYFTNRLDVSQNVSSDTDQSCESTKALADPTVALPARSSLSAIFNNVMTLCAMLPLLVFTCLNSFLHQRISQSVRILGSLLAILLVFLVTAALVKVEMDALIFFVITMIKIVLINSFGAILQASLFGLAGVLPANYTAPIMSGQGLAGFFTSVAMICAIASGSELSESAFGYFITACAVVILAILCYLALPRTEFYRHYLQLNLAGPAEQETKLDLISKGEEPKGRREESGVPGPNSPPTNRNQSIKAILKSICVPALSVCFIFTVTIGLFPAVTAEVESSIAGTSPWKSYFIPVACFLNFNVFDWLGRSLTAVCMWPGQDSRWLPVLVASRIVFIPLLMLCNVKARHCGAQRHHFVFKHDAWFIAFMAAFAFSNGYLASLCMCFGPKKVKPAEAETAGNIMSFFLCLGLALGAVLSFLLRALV
The experiment in a line: Measure of adenosine transport activity (ENT1 adenosine uptake inhibition). It counts as cell-based. Particulars: stable cells expressing mouse ENT-1, [2,8-3H]-adenosine 6 nM, 20 min. On the procedure: To measure adenosine transport activity of ENT-1 mammalian cells, stable cells expressing the mouse ENT-1 transporter were plated on day 1 in 96-well culture plates at the density of 60,000 cells/well, in complete DMEM/F12 medium supplemented with glutamax, 10% FBS and 10 μg/ml puromycin. On day 2, the medium was aspirated and the cells were washed twice with uptake buffer (10 mM Hepes-Tris, pH 7.4 containing 150 mM NaCl, 1 mM CaCl2), 2.5 mM KCl, 2.5 mM MgSO4, 10 mM D-glucose) (UB). For inhibition experiments, cells were then incubated at RT with various concentrations of compounds with 1% DMSO final. Non-specific uptake was defined in the presence of 10 μM S-(4-Nitrobenzyl)-6-thioinosine (NBTI, Sigma Cat #N2255).
The plates were then incubated for 20 min with gentle shaking and the reaction was stopped by aspiration of the mixture and washing (three times) with ice-cold UB. The cells were lysed by the addition of scintillation liquid, shaken 3 hours and the radioactivity in the cells was estimated using a microplates scintillation counter (TopCount NXT, Packard).

The term IC50 denotes the concentration needed to halve the response being measured. A higher IC50 goes with weaker potency.

“2-(3-(3,3-dimethyl-6-(2-methylpyrimidin-5-yl)-2-oxoindolin-1-yl)-1H-pyrazol-1-yl)-N,N-dimethylacetamide [Example 141]” came in with an IC50 of 1120 nM. This counts as single-digit micromolar.

Values taken from patent US20230391778A1, “INDOLIN-2-ONE OR PYRROLO -PYRIDIN -2 -ONE DERIVATIVES” (Hoffmann-La Roche Inc., priority 2014, published 2023).
